Test results taken from patent publication US10100097B2, “GIP-GLP-1 dual agonist compounds and methods” (Zealand Pharma A/S, priority 2012, dated 2018).

By UniProt entry, the sequences of proteins in these tests, tags left out. Residues count along the entry.
UniProt P43220, 24-463: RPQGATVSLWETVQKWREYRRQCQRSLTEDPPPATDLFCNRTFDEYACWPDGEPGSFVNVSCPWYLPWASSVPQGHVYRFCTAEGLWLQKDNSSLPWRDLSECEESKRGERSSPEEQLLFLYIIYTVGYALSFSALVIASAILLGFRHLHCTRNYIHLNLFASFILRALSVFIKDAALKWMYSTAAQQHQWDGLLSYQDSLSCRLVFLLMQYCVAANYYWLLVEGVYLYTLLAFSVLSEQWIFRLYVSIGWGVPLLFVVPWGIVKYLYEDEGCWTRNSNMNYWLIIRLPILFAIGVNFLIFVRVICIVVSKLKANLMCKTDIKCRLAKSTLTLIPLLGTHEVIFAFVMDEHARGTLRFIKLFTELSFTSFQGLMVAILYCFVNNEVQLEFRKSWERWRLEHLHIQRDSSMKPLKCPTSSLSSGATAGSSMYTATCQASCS

Target: T1, human GLP-1 R (Homo sapiens, UniProt P43220)
T1 construct: expressed in transfected cells
Test: Human GLP-1 receptor (GLP-1 R) activity assay, cAMP induction (AlphaScreen cAMP kit)
Assay type: cell-based
Procedure: Human GIP Receptor (GIP R) and GLP-1 Receptor (GLP-1 R) Activity Assay
In vitro effects of peptide conjugates of the invention were assessed by measuring the induction of cAMP following stimulation of the respective receptor by GIP, GLP1 or analogues of these, as outlined in the invention, using the AlphaSceen® cAMP kit from Perkin-Elmer according to instructions. Briefly. HEK293 cells expressing the human GIP R or GLP-1 R (stable cell lines generated through transfection of the cDNA for human GIP R or GLP-1 and selection of stable clones) were seeded at 30,000 cells/well in 96-well microtiter plates coated with 0.01% poly-L-lysine, and grown for 1 day in culture in 200 μl growth medium (DMEM, 10% FCS, Penicillin (100 IU/ml), Streptomycin (100 μg/ml)). On the day of analysis, growth medium was removed and the cells were washed once with […] Tyrode's buffer (Tyrode's Salts (9.6 g/1), 10 mM HEPES, pH 7.4). […] The Assay buffer was removed and cells are lysed in 80 μl Lysis buffer (0.1% w/v BSA, 5 mM HEPES, 0.3% v/v Tween-20) per well. […] The plates were mixed and incubated in the dark for an hour at room temperature before measuring using an Envision™ plate reader (Perkin-Elmer).

`CCCCCCCCCCCCCCCC(=O)N[C@@H](CCC(=O)NCCCC[C@H](NC(=O)[C@H](CCCCN)NC(=O)[C@H](CC(=O)O)NC(=O)[C@H](CC(C)C)NC(=O)[C@H](C)NC(=O)[C@@H](NC(=O)[C@H](CO)NC(=O)[C@H](Cc1ccc(O)cc1)NC(=O)[C@H](CC(=O)O)NC(=O)[C@H](CO)NC(=O)[C@@H](NC(=O)[C@H](Cc1ccccc1)NC(=O)[C@@H](NC(=O)CNC(=O)[C@H](CCC(=O)O)NC(=O)C(C)(C)NC(=O)[C@@H](N)Cc1ccc(O)cc1)[C@@H](C)O)[C@@H](C)O)[C@@H](C)CC)C(=O)N[C@@H](C)C(=O)N[C@@H](CCC(N)=O)C(=O)N[C@@H](CCCNC(=N)N)C(=O)N[C@@H](C)C(=O)N[C@@H](Cc1ccccc1)C(=O)N[C@H](C(=O)N[C@@H](CC(N)=O)C(=O)N[C@@H](Cc1c[nH]c2ccccc12)C(=O)N[C@@H](CC(C)C)C(=O)N[C@H](C(=O)N[C@@H](C)C(=O)NC(C)(C)C(=O)N[C@@H](CCCCN)C(=O)N1CCC[C@H]1C(=O)N[C@@H](CO)C(=O)N[C@@H](CO)C(=O)NCC(=O)N[C@@H](C)C(=O)N1CCC[C@H]1C(=O)N1CCC[C@H]1C(=O)N1CCC[C@H]1C(=O)N[C@@H](CO)C(N)=O)C(C)C)C(C)C)C(=O)O` [Compound 36] was tested, and the EC50 was 0.015 nM.
